This note sets out measurements from PubChem BioAssay (NCI).

Test systems include NCI/ADR-RES ovarian; T-47D breast; BT-549 breast; MDA-MB-435 melanoma; SW-620 colon; MCF7 breast; HCT-116 colon; HCC-2998 colon; KM12 colon.
What all share (assay): NCI-60 one-dose screen, 48 h (100 = growth as untreated, 0 = no growth, -100 = all killed)
What all share (conditions): 10 µM

SMILES strings stand for the structures. The list shows a part of the results, in another mix than the full data.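 In brief: 96-well plates, 48 h treatment, single concentration, percent growth endpoint.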 Active and inactive are the calls of the source. The calls were made as follows: active = growth percent below 10; inactive = the rest.

For `CN(Cc1cccnc1)C(=O)COc1ccc(Cl)c(Cl)c1.O=[N+]([O-])c1cc([N+](=O)[O-])c(O)c([N+](=O)[O-])c1`, the growth was inactive: 102% in the assay on NCI/ADR-RES ovarian; inactive: 89.3% in the assay on T-47D breast; inactive: 111% in the assay on BT-549 breast; inactive: 107% with MDA-MB-435 melanoma; inactive: 111% in the assay on SW-620 colon; inactive: 87.6% in the assay with MCF7 breast. The growth was inactive: 111% with HCT-116 colon, inactive: 109% in the assay with HCC-2998 colon and inactive: 98.8% in the assay with KM12 colon.

For the compound `CP(=O)(OCCCCl)N(CCCl)CCCl` (centres undefined), the growth in the assay on NCI/ADR-RES ovarian is inactive: 108%; in the assay with T-47D breast, inactive: 101%; with BT-549 breast, inactive: 110%; with MDA-MB-435 melanoma it was inactive: 107%; in the assay on SW-620 colon, inactive: 107%; in the assay with MCF7 breast, inactive: 94.4%. For the same compound, the growth in the assay on HCT-116 colon was inactive: 105%; with HCC-2998 colon it was inactive: 102%; with KM12 colon, inactive: 112%.

Regarding `O=C1N([N+](=O)[O-])CCN1[N+](=O)[O-]`, the growth with NCI/ADR-RES ovarian is inactive: 103%; with T-47D breast it was inactive: 121%; with BT-549 breast it was inactive: 114%; in the assay with MDA-MB-435 melanoma, inactive: 101%; in the assay with SW-620 colon it was inactive: 97.6%; with MCF7 breast, inactive: 85.8%. In addition, the growth is inactive: 105% in the assay with HCT-116 colon, inactive: 109% in the assay with HCC-2998 colon and inactive: 106% in the assay on KM12 colon.

For the compound `CNc1ccccc1.O=[N+]([O-])c1cc([N+](=O)[O-])c(O)c([N+](=O)[O-])c1`, the growth in the assay with NCI/ADR-RES ovarian was inactive: 110%; with T-47D breast, inactive: 105%; in the assay on BT-549 breast, inactive: 116%; with MDA-MB-435 melanoma it was inactive: 99.5%; with SW-620 colon it was inactive: 99.4%; with MCF7 breast, inactive: 96.3%. The growth is inactive: 105% with HCT-116 colon, inactive: 107% in the assay with HCC-2998 colon and inactive: 107% in the assay with KM12 colon.

On to `CCOC(=O)CSc1c(N)c(C)nn1C.O=[N+]([O-])c1cc([N+](=O)[O-])c(O)c([N+](=O)[O-])c1`, for which the growth in the assay on NCI/ADR-RES ovarian is inactive: 105%; with T-47D breast, inactive: 102%; with BT-549 breast it was inactive: 101%; in the assay with MDA-MB-435 melanoma, inactive: 96.8%; with SW-620 colon, inactive: 98.5%; in the assay on MCF7 breast, inactive: 94.9%. Further, the growth in the assay with HCT-116 colon is inactive: 108%; in the assay on HCC-2998 colon, inactive: 115%; in the assay with KM12 colon it was inactive: 106%.

As for `CC[N+]([O-])(CC)Cc1ccccc1.O=[N+]([O-])c1cc([N+](=O)[O-])c(S(=O)(=O)O)c([N+](=O)[O-])c1`, the growth with NCI/ADR-RES ovarian was inactive: 110%; in the assay on T-47D breast, inactive: 129%; with BT-549 breast, inactive: 112%; with MDA-MB-435 melanoma it was inactive: 86%; in the assay on SW-620 colon it was inactive: 100%; in the assay with MCF7 breast it was inactive: 100%. Moreover, the growth is inactive: 105% with HCT-116 colon, inactive: 102% with HCC-2998 colon and inactive: 107% in the assay with KM12 colon.

As for `CN(CCCl)CCCCCCCl`, the growth is inactive: 98.6% in the assay with NCI/ADR-RES ovarian; inactive: 84.5% in the assay on T-47D breast; inactive: 87.4% with BT-549 breast; inactive: 102% in the assay with MDA-MB-435 melanoma; inactive: 87.5% in the assay on SW-620 colon; inactive: 89.9% in the assay with MCF7 breast. Also, the growth in the assay on HCT-116 colon was inactive: 95.2%; in the assay with HCC-2998 colon it was inactive: 101%; with KM12 colon, inactive: 105%.

`O=C1C(O)=C([N+](=O)[O-])C(=O)C(O)=C1[N+](=O)[O-]`: the growth is inactive: 105% with NCI/ADR-RES ovarian; inactive: 108% in the assay on T-47D breast; inactive: 104% in the assay on BT-549 breast; inactive: 107% with MDA-MB-435 melanoma; inactive: 105% with SW-620 colon; inactive: 103% with MCF7 breast. Moreover, the growth is inactive: 100% in the assay with HCT-116 colon, inactive: 110% with HCC-2998 colon and inactive: 107% in the assay with KM12 colon.

With `Cc1c([N+](=O)[O-])c(C)c([N+](=O)[O-])c(Nc2c([N+](=O)[O-])c(C)c([N+](=O)[O-])c(C)c2[N+](=O)[O-])c1[N+](=O)[O-]`, the growth in the assay with NCI/ADR-RES ovarian is active: -6.57%; in the assay on T-47D breast, inactive: 23.8%; in the assay with BT-549 breast it was active: -14.8%; in the assay on MDA-MB-435 melanoma, active: 1.33%; with SW-620 colon it was active: 8.62%; in the assay on MCF7 breast, active: 0.861%. The values for the growth with HCT-116 colon, in the assay on HCC-2998 colon and in the assay on KM12 colon were active: -57.6%, active: -0.554% and active: 5.28%, respectively.

As to `CC[N+](C)(CC)Cc1cc(Cc2ccccc2)ccc1OC(=O)N(C)C`, the growth is inactive: 94.7% in the assay on NCI/ADR-RES ovarian; inactive: 91.9% in the assay on T-47D breast; inactive: 110% with BT-549 breast; inactive: 110% in the assay with MDA-MB-435 melanoma; inactive: 106% in the assay with SW-620 colon; inactive: 94.2% in the assay with MCF7 breast. Also, the growth in the assay with HCT-116 colon is inactive: 103%; in the assay with HCC-2998 colon, inactive: 94.6%; with KM12 colon it was inactive: 111%.

Consider `O=[N+]([O-])N(CCN(CC(Br)([N+](=O)[O-])[N+](=O)[O-])[N+](=O)[O-])CC(Br)([N+](=O)[O-])[N+](=O)[O-]`, for which the growth in the assay on NCI/ADR-RES ovarian is inactive: 98.4%; with T-47D breast it was inactive: 101%; with BT-549 breast, inactive: 90.8%; in the assay on MDA-MB-435 melanoma it was inactive: 105%; in the assay on SW-620 colon it was inactive: 105%; with MCF7 breast it was inactive: 102%. The growth in the assay on HCT-116 colon was inactive: 95.3%; in the assay on HCC-2998 colon, inactive: 113%; in the assay on KM12 colon, inactive: 116%.

With `COc1ccc(C(O)(C(=O)OCCN2CCCCC2)c2ccc(OC)cc2)cc1`, the growth in the assay with NCI/ADR-RES ovarian was inactive: 95.6%; in the assay on T-47D breast it was inactive: 97.1%; with BT-549 breast it was inactive: 111%; with MDA-MB-435 melanoma it was inactive: 116%; with SW-620 colon, inactive: 104%; in the assay on MCF7 breast it was inactive: 106%. For the same compound, the figures for the growth in the assay with HCT-116 colon, in the assay with HCC-2998 colon and with KM12 colon were inactive: 103%, inactive: 93.4% and inactive: 83.2%, respectively.

As for `Nc1cc([As](Cl)Cl)cc(N)c1O`, the growth is inactive: 67.1% with NCI/ADR-RES ovarian; inactive: 65.5% in the assay on T-47D breast; inactive: 42.5% with BT-549 breast; inactive: 44.5% with MDA-MB-435 melanoma; inactive: 50.8% in the assay on SW-620 colon; inactive: 17.8% in the assay on MCF7 breast. Further, the growth in the assay with HCT-116 colon is inactive: 26.2%; in the assay with HCC-2998 colon, inactive: 88.4%; with KM12 colon it was inactive: 95.5%.

For the compound `CCN(CC)CCOC(=O)C(O)(c1cc(C)cc(C)c1)c1cc(C)cc(C)c1`, the growth was inactive: 101% with NCI/ADR-RES ovarian; inactive: 86.9% with T-47D breast; inactive: 106% in the assay on BT-549 breast; inactive: 105% in the assay with MDA-MB-435 melanoma; inactive: 97.3% in the assay on SW-620 colon; inactive: 97.7% in the assay on MCF7 breast. Further, the growth in the assay with HCT-116 colon was inactive: 97.7%; in the assay with HCC-2998 colon, inactive: 107%; in the assay with KM12 colon, inactive: 103%.

Regarding `O=[N+]([O-])N(CCOC(N(F)F)(N(F)F)N(F)F)CC([N+](=O)[O-])([N+](=O)[O-])[N+](=O)[O-]`, the growth with NCI/ADR-RES ovarian is inactive: 104%; in the assay on T-47D breast it was inactive: 97.6%; with BT-549 breast, inactive: 111%; in the assay with MDA-MB-435 melanoma it was inactive: 103%; in the assay with SW-620 colon, inactive: 103%; in the assay on MCF7 breast, inactive: 96.2%. The growth was inactive: 106% in the assay on HCT-116 colon and inactive: 113% in the assay with HCC-2998 colon.
